Values of other authors as cited in patent publication US20240174671A1, “New 2,3-Dihydro-1H-pyrrolo[3,2-b]pyridine Derivatives as Sigma Ligands” (ACONDICIONAMIENTO TARRASENSE, priority 2021, published 2024).

Amino acid sequences for entries named in this document (tags omitted).
UniProt Q99720, whole entry: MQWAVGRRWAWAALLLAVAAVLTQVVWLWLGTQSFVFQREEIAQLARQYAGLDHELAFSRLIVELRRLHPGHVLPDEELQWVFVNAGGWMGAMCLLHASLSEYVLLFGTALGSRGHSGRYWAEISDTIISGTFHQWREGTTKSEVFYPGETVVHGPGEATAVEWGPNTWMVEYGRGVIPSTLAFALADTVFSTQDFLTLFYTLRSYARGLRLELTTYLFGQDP

Target: sigma-1 (σ1) site (Homo sapiens, UniProt Q99720)
Details: background statement; cited from earlier work

(+)-SKF-10047
affinity for the sigma-1 (σ1) site: nanomolar affinity
